Experimental data published in ChEMBL document CHEMBL1148711, “Naphthalen-1-yl-(4-pentyloxynaphthalen-1-yl)methanone: a potent, orally bioavailable human CB1/CB2 dual agonist with antihyperalgesic properties and restricted central nervous system penetration” (J Med Chem, 2007).

By UniProt entry, the sequences of proteins in these tests, tags left out.
UniProt P21554, whole entry: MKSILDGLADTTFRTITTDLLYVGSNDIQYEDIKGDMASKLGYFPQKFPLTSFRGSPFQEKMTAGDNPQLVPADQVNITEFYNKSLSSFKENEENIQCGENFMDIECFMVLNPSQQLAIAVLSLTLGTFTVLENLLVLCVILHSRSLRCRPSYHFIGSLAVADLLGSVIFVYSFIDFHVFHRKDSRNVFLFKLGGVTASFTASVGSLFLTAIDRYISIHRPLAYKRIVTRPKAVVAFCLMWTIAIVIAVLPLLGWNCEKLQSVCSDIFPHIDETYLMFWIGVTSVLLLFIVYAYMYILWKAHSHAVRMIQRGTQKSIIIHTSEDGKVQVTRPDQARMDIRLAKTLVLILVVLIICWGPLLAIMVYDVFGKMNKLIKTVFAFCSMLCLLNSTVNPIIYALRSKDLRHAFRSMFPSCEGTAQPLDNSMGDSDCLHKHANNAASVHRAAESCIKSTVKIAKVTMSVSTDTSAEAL

What was measured:
[1] = target: T1, Cannabinoid receptor 1 (Homo sapiens, UniProt P21554); experiment: Displacement of [3H]CP-55940 from human CB1 receptor expressed in HEK293 cells; type: cell-based
[2] = target: T1, Cannabinoid receptor 1; experiment: Agonist activity at human CB1 receptor expressed in HEK293 cells assessed as reversal of forskolin-evoked cAMP accumulation; type: functional, cell-based

For `CCCCCOc1ccc(C(=O)c2cccc3ccccc23)c2ccccc12`, the IC50 [1] was 15 nM and the EC50 [2] was 6.1 nM.
